The subject of series [1] is MPTP-treated mice. The series is described as follows: MPTP model of Parkinson's disease. The conditions noted are these: oral 10 mg/kg 8, 6, 4 and 1 days prior and 1 and 3 days post MPTP.
Series [2] is described as follows: Degradation of peptide in mouse serum in vitro.
The subject of series [3] is carrageenan-induced inflammation. As to the kind of experiment: Carrageenan-induced inflammation in mice. The conditions noted are these: injected 7, 5, 3 days and 20 min prior to carrageenan; FIG. 15.
The subject of series [4] is arthritic mice. As to the kind of experiment: Collagen-induced arthritis, joint swelling. The conditions noted are these: intracardial 1 mg/kg at start of swelling, repeated 7, 11 and 14 days later; FIG. 12.
In series [5] the test system is mouse peritoneal neutrophils. As to the kind of experiment: PMA-induced oxidative burst in peritoneal neutrophils. The conditions noted are these: PMA 2.5 μM, peptide added 1 minute later; luminescence; FIG. 9, 10.
The subject of series [6] is drain lymph nodes. The series is described as follows: Cell number in drain lymph nodes of PLP-immunized mice. The conditions noted are these: oral 10 mg/kg 3 times a week from immunization; ten days after immunization; FIG. 29.
Series [7] concerns peritonitis. The series is described as follows: Thioglycolate-induced peritonitis. The conditions noted are these: i.v. 1 mg/kg; three days after thioglycolate; FIG. 28.
Series [8] relates to LPS-induced mortality. As to the kind of experiment: LPS-induced mortality (sepsis model).
Series [9] in a line: Degradation of peptide in human serum in vitro.
Series [10] has as its system experimental autoimmune encephalitis. As to the kind of experiment: Experimental autoimmune encephalitis (MOG 35-55), intracardial peptide at immunization. The conditions noted are these: intracardial 1 mg/kg.
For series [11], the system named is carrageenan-induced inflammation. The series is described as follows: Carrageenan-induced inflammation in male rats. The conditions noted are these: injected 7, 5, 3 days and 20 min prior to carrageenan, FIG. 16.
Series [12] is described as follows: Metal chelating: incubation with CoCl2, HPLC separation, MS and cobalt content.
In series [13] the test system is HaCaT cells. The series is described as follows: SM-induced cytotoxicity in HaCaT cells (MTT).
Series [14] concerns experimental autoimmune encephalitis. The series is described as follows: Experimental autoimmune encephalitis (MOG 35-55), oral or i.p. treatment from onset of symptoms.
In series [15] the test system is HaCaT cells. As to the kind of experiment: Hydrogen peroxide-induced cytotoxicity in HaCaT cells (MTT). The conditions noted are these: for number of viable cells: 4 hours pre-incubation, H2O2 1 mM 24 hours.
A short description of series [16]: Hydroxyl radical scavenging, horseradish peroxidase/luminol/glucose oxidase luminescence. The conditions noted are these: HRP/luminol/glucose oxidase in HBSS; as a function of peptide concentration.
Series [17] can be described thus: Hydroxyl radical scavenging, CoCl2/Na2SeO3/luminol/glucose oxidase luminescence. The conditions noted are these: CoCl2/Na2SeO3/luminol/glucose oxidase in HBSS; as a function of peptide concentration.
In series [18] the test system is HaCaT cells. As to the kind of experiment: LPA-induced luminescence in MIIIM1 peptide-transfected HaCaT cells. The conditions noted are these: peptide-transfected cells vs control cells; FIG. 17.
The mark [19] stands for this setting: oral 10 mg/kg on days 9, 11, 14, 18, 21, 23, 25, 28 after MOG, FIG. 24.

In the case of `CC(C)[C@H](NC(=O)[C@H](CCCNC(=N)N)NC(=O)[C@H](CCC(=O)O)NC(=O)[C@H](C)NC(=O)[C@H](Cc1ccc(O)cc1)NC(=O)[C@H](Cc1c[nH]cn1)NC(=O)CNC(=O)[C@@H](N)CCCCN)C(=O)NCC(=O)O`, in series [1] (FIG. 34), the “dopamine levels in striatum” value was “prevent the reduction of dopamine levels”. Also, the “behavioral manifestations (pole test, open field)” value in series [1] (FIGS. 31-33) is “inhibit the behavioral manifestations”. The T1/2 came out at 7 min in series [2] and 14 min in [9]. Moreover, the subplantar swelling entry in series [3] and in [11] was “anti-inflammatory effect” throughout. Further, the joint swelling result in [4] was “very potent in reducing joint swelling”. In [5], the “effect on oxidative burst” value is recorded as “protective effect”. Also, the “number of cells in drain lymph nodes” value in series [6] is recorded as “significantly reduced”. The “cell number in the peritoneal lavage” value in [7] is given as “reduce the cell number”. In [8] (FIG. 37), the “interval between administration and LPS injection that achieved the higher survival values” was determined as 3 h. Besides, the “weight gain of kidney, spleen, liver and lung” value in [8] (LPS-treated mice, FIGS. 38A-D) was “reduce the weight gain”. Moreover, the LPS-induced mortality entry in [8] (i.v. single 1 mg/kg 3 days prior to LPS 1.2 mg/mouse i.p., FIG. 35) was “reduce LPS-induced mortality”. In addition, the neurological score result is given as “anti-multiple sclerosis effect” in series [10] (female C57BL mice, FIG. 13) and “anti-multiple sclerosis effect” in [10] (male C57BL mice, FIG. 14). Moreover, in series [12] (1 mg/ml peptide, 10 μM or 30 μM CoCl2, 3 minutes room temperature, HPLC/MS), the binding of cobalt result is reported as “cobalt-IIIM1 complex”. Moreover, the Cobalt content in series [12] (Peak I, retention time 18.2 min (IIIM1)) was <0.5 µg/L; in series [12] (Peak II, retention time 19.1 min (cobalt-IIIM1 complex)), 7.5 µg/L. Also, in [13] (30 μg/ml peptide, 4 hours pre-incubation, SM 1 μM 24 hours, FIG. 20), the “number of viable cells” value is “increased the number of viable cells”. For the same molecule, the neurological symptoms result in series [14] (i.p., injected only twice, after the second injection, FIG. 26) is “severe neurological symptoms, more than those of the controls”. For the same molecule, the “neurological symptoms (score 0-6)” value in series [14] (oral 10 mg/kg on days 7, 9, 12, 14, 16, 19 after MOG, FIG. 23) is recorded as “efficiently eliminates the neurological symptoms”; in [14] (setting [19]), “reduced the neurological symptoms”.
As for H-Ala-Glu-Arg-Val-Gly-OH, the “number of viable cells” value in [15] (10 μg/ml of each fragment, FIG. 21) is “beneficial effect, though it was lower than that obtained by the mixture”.
“H-Lys-Gly-His-Tyr-Ala-Glu-Arg-Val-Gly-Cys-OH”: the “scavenging of free hydroxyl radicals” value in series [16] is “scavenging free hydroxyl radicals”. The neurological score entry in series [14] (i.p. 1 mg/kg on days 9, 11, 14, 16, 18, 21, 23, 25, 28 after MOG, FIG. 25) is recorded as “significantly improved”. Moreover, the “neurological symptoms (score 0-6)” value in series [14] (setting [19]) is on record as “reduced the neurological symptoms”.
For the molecule “H-Lys-Ala-Asn-Tyr-MeAla-Glu-Arg-Val-Gly-OH”, the “scavenging of free hydroxyl radicals” value in [17] is on record as “scavenging free hydroxyl radicals”.
With “H-Lys-Gly-Asn-Tyr-Ala-Glu-Arg-Val-Gly-OH”, in series [10] (female C57BL mice, FIG. 13), the neurological score result is on record as “to a lesser extent”. For the same molecule, the subplantar swelling result in [11] is “anti-inflammatory effect”.
With “H-Lys-Gly-His-Tyr-MeAla-Glu-Arg-Val-Gly-OH”, the “scavenging of free hydroxyl radicals” value in series [16] is “scavenging free hydroxyl radicals”.
Consider `CSCC[C@H](N)C(=O)N[C@@H](CCCCN)C(=O)NCC(=O)N[C@@H](Cc1c[nH]cn1)C(=O)N[C@@H](Cc1ccc(O)cc1)C(=O)N[C@@H](C)C(=O)N[C@@H](CCC(=O)O)C(=O)N[C@@H](CCCNC(=N)N)C(=O)N[C@H](C(=O)NCC(=O)O)C(C)C`, for which the LPA-induced luminescence result in series [18] is “significantly lower luminescence”. Moreover, the reduction of viability amounted to 38% in series [15] (peptide-transfected HaCaT cells, 500 μM hydrogen peroxide, MTT after 24 hours (control cells 71%)) and 59% in series [13] (peptide-transfected HaCaT cells, 1 μM SM, MTT after 24 hours (control cells 87%)).
For H-Gly-His-Tyr-Ala-Glu-Arg-Val-Gly-OH, the “number of viable cells” value in series [15] (10, 30 and 100 μg/ml, FIG. 22) was “increased significantly”.

The values are drawn from US7528227B2, “Histone H2A peptide derivatives and uses thereof” (dated 2009).
